Measured values from patent US10093642B2, “Multitarget hedgehog pathway inhibitors and uses thereof” (UNIVERSITA' DEGLI STUDI DI SIENA, priority 2013, dated 2018).

Target: T1, SMO receptor (UniProt P56726)
T1 construct: fused on or other part: Possibly a C-terminal Myc3 tag, if the construct is Smo-Myc3 of Chen et al. 2002
Test: Displacement assay with Bodipy-cyclopamine in HEK293 cells transfected with SMO
Type: binding
Settings: positive control, 1 μM

## 3-Keto-N-(aminoethyl-aminocaproyl-dihydrocinnamoyl)-cyclopamine [KAAD, reference compound]
  Bodipy-cyclopamine binding to cells expressing SMO: abrogated BC binding
